Measured values as given in publication PMC10024865 (Journal of medicinal chemistry, 2022).

Test system: 60 human cancerous cell lines
Test: NCI-60 panel
Assay type: cell-based

N=c1c2c(-c3ccccc3)c(-c3ccccc3)n(Cc3ccccc3)c2ncn1CCCO [Compound 5a, 3-(7-Benzyl-4-imino-5,6-diphenyl-4,7-dihydro-3H-pyrrolo[2,3-d]pyrimidin-3-yl)propan-1-ol] was tested, and the “effect at the highest concentration” value was “cell death in all cell lines”.
